Consider two compounds from US20150376198A1, “MODULATORS OF VASOPRESSIN RECEPTORS WITH THERAPEUTIC POTENTIAL” (priority 2013, published 2015).

Protein sequences, listed by entry. Tags and fused reporters are not part of them.
UniProt P37288, whole entry: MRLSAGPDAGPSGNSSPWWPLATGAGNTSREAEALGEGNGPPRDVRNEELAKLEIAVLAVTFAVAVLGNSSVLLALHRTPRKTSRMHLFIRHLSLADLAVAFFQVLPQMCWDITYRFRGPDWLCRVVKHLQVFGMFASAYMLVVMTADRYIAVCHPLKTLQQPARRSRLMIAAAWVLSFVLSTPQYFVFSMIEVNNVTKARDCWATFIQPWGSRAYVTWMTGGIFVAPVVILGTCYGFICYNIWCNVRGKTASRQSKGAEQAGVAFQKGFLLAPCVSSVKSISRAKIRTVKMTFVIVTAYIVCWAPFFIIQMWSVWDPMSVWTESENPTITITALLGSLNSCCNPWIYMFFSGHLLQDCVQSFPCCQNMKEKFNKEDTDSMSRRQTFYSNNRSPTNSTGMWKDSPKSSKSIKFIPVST

For orientation: IC50 means the concentration that gives 50% inhibition.

In this assay the target is human Arginine Vasopressin Receptor 1a (AVPR1a) (Homo sapiens, UniProt P37288). Kind of assay: V1a-R Antagonist Assay (AVPR1a-NFAT-bla CHO-K1 beta-lactamase reporter, FRET). Type of assay: cell-based. As to conditions: read-out: V1a-R IC50; Table 4, compounds of formula (I).

Only a part of the results on these compounds is given; other tests are left out.

On to `CCC(=O)N(c1ccccc1)C1CCN(C(=O)c2ccc(C#N)cc2)CC1`, for which the IC50 is more than 50 µM.

For the compound `CCC(=O)N(c1ccccc1)C1CCN(C(=O)c2cc3cc(Cl)ccc3[nH]2)CC1`, the IC50 came out at 36.9 µM.
